In PubChem BioAssay AID624481 (The Scripps Research Institute Molecular Screening Center, 2012):
Only a part is listed here, and it is no random draw. Activity calls are given as the source filed them. No stated cut-off is given here; in the data, active means inhibition above about 50%; inactive means the rest.

Chains of the proteins cited; added tags and fusions are not shown.
UniProt Q8C167, whole entry, looked up: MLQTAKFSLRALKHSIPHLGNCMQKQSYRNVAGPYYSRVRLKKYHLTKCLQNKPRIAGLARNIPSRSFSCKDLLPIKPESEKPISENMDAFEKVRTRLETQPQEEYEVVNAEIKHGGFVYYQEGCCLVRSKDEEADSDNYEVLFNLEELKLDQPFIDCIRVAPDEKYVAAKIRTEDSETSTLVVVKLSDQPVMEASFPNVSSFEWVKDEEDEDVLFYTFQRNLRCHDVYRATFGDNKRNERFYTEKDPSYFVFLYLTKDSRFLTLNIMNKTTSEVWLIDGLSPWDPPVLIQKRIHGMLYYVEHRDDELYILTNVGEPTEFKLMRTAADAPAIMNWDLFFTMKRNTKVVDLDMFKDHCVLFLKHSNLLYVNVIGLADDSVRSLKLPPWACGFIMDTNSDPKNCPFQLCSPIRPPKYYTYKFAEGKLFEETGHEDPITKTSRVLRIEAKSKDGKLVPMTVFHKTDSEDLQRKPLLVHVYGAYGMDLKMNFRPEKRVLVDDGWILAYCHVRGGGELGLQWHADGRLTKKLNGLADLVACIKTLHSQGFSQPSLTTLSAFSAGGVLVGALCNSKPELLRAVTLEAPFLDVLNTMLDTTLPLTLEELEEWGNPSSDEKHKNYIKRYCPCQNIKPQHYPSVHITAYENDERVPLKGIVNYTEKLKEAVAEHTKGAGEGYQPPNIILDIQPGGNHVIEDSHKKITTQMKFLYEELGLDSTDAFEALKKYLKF

Molecular target: Prolyl endopeptidase-like (Mus musculus) (UniProt Q8C167)
Test: mouse PREPL enzyme inhibition by screening hits – biochemical, gel-based competitive ABPP, fluorescence, HTS hits, PREPL inhibitor project (AID 624481)
Conditions: purified mouse PREPL, at 20 µM, hits give high values

`CN(C(=O)Cc1ccc(Cl)c(Cl)c1)[C@@H]1CCCC[C@@H]1N1CCCC1` was tested, and the inhibition was inactive: -32%.
